Earlier results, collected in US20260151486A1, “PRESSURIZED NANOEMULSION” (BIOFRONTERA BIOSCIENCE GMBH, priority 2023, published 2026).

Details: cited from earlier work

## betamethasone propionate [BMP]
  octanol-water partition coefficient (log P): 1.14
